Source: patent EP4831156A1, “SUBSTITUTED N-(4-TRIFLUOROMETHYL)-2-CYANOCROTONAMIDE COMPOUND, PREPARATION METHOD THEREFOR, AND PHARMACEUTICAL COMPOSITION AND USE THEREOF” (dated 2026)

Experiments:
[1] = system: Acetic Acid-induced Writhing Response in Mice; test: Acetic acid-induced writhing response in mice; settings: 40 mg/kg oral, 0.6% acetic acid i.p. 30 min after administration; for Writhing times within 20 min: x±s, n=8
[2] = system: Experimental Autoimmune Encephalomyelitis (EAE) Mice; test: Experimental autoimmune encephalomyelitis (EAE) mouse model: LFB staining, IL-17A and IFN-γ detection, neurological score; settings: 5 mg/kg for 14 consecutive days; for IL-17A level in spinal: Fig. 3; for IFN-γ level in spinal: Fig. 4
ICR mice = test: Tolerance study of test drugs in mice; settings: for Clinical observation: 200 mg/kg intraperitoneally once daily for 4 consecutive days; for Tolerance dose: intraperitoneally once daily for 4 consecutive days
786-O cells = test: Anticancer activity, CellTiter-Glo Luminescent Cell Viability Assay; settings: read-out: IC50 (µM) 786-O; 72 h incubation
A549 cells = test: as above; settings: read-out: IC50 (µM) A549; 72 h incubation
H460 cells = test: as above; settings: read-out: IC50 (µM) H460; 72 h incubation
LNCaP cells = test: as above; settings: read-out: IC50 (µM) LNCaP; 72 h incubation
PC3 = test: as above; settings: read-out: IC50 (µM) PC3; 72 h incubation
DU145 cells = test: as above; settings: read-out: IC50 (µM) DU145; 72 h incubation

| Structure (SMILES) | Writhing inhibition rate (%) [1] | Writhing times within 20 min [1] | Clinical observation (ICR mice) | Tolerance dose (ICR mice) | further results |
| --- | --- | --- | --- | --- | --- |
| C/C(=C(/C#N)C(=O)Nc1ccc(C(F)(F)F)cc1)N(C)C | 88.4% | 4 ··· |  |  |  |
| C/C(NC(=O)OC[C@H](N)C(=O)OC(C)C)=C(/C#N)C(=O)Nc1ccc(C(F)(F)F)cc1 |  |  |  |  | IL-17A level in spinal ([2]; compared with the model group): significantly decreased; IFN-γ level in spinal ([2]; compared with the model group): significantly reduced |
| N#C/C(=C\N)C(=O)Nc1ccc(C(F)(F)F)cc1 | 76.0% | 8.3 ··· |  |  |  |
| CCc1c(C#N)c(=O)n(-c2ccc(C(F)(F)F)cc2)c(=O)n1C | 74.4% | 8.8 ··· | No adverse reactions. | > 200 mg/kg |  |
| CCCCOC(=O)[C@@H](N)COC(=O)N/C(C)=C(\C#N)C(=O)Nc1ccc(C(F)(F)F)cc1 |  |  |  |  | IL-17A level in spinal ([2]; compared with the model group): significantly decreased; IFN-γ level in spinal ([2]; compared with the model group): significantly reduced |
| Cc1c(C#N)c(=O)n(-c2ccc(C(F)(F)F)cc2)c(=O)n1COC(=O)C(C)(C)C |  |  | No adverse reactions. | > 200 mg/kg |  |
| CC1=CC(=O)N(CCCCCC(=O)N/C(C)=C(\C#N)C(=O)Nc2ccc(C(F)(F)F)cc2)C1=O |  |  |  |  | IC50 (786-O cells): 1.99 µM; IC50 (A549 cells): 2.66 µM; IC50 (H460 cells): 1.12 µM; IC50 (LNCaP cells): 0.84 µM; IC50 (PC3): 1.95 µM; IC50 (DU145 cells): 2.64 µM |
| C/C(=C(/C#N)C(=O)Nc1ccc(C(F)(F)F)cc1)N1CCOCC1 | 70.1% | 10.3 ··· |  |  | demyelinated areas (LFB staining, spinal cord) ([2]; compared with the Teriflunomide group, Fig. 2): significantly smaller; lightly stained blue regions or unstained white regions in the spinal cord tissue (LFB staining) ([2]; compared with the model group, Fig. 2): significantly reduced; IFN-γ level in spinal ([2]; compared with the model group): significantly reduced |
| Cc1nc(OC2CCCC2)n(-c2ccc(C(F)(F)F)cc2)c(=O)c1C#N | 68.6% | 10.8 ± 3.2 | No adverse reactions. | > 200 mg/kg |  |
| C/C(=C(/C#N)C(=O)Nc1ccc(C(F)(F)F)cc1)N1CCCC1 | 73.5% | 9.1 ··· |  |  |  |
| C/C(NOCc1ccccc1)=C(/C#N)C(=O)Nc1ccc(C(F)(F)F)cc1 | 77.6% | 7.7 ··· |  |  | IC50 (786-O cells): 1.22 µM; IC50 (A549 cells): 4.03 µM; IC50 (H460 cells): 1.59 µM; IC50 (LNCaP cells): 2.93 µM; IC50 (PC3): 2.33 µM; IC50 (DU145 cells): 2.68 µM |
| CCn1c(C)c(C#N)c(=O)n(-c2ccc(C(F)(F)F)cc2)c1=O |  |  | No adverse reactions. | > 200 mg/kg |  |
| Cc1[nH]c(=O)n(-c2ccc(C(F)(F)F)cc2)c(=O)c1C#N |  |  | No adverse reactions. | > 200 mg/kg |  |
| CCOC(=O)/C=C/C(=O)N/C(C)=C(\C#N)C(=O)Nc1ccc(C(F)(F)F)cc1 |  |  |  |  | IC50 (786-O cells): 1.25 µM; IC50 (A549 cells): 4.96 µM; IC50 (H460 cells): 1.07 µM; IC50 (LNCaP cells): 3.01 µM; IC50 (PC3): 4.61 µM; IC50 (DU145 cells): 3.32 µM |
| CC(=O)OCn1c(C)c(C#N)c(=O)n(-c2ccc(C(F)(F)F)cc2)c1=O |  |  | No adverse reactions. | > 200 mg/kg |  |
| CCOC(=O)[C@@H](N)COC(=O)N/C(C)=C(\C#N)C(=O)Nc1ccc(C(F)(F)F)cc1 |  |  |  |  | IL-17A level in spinal ([2]; compared with the model group): significantly decreased; IFN-γ level in spinal ([2]; compared with the model group): significantly reduced |
| COC(=O)[C@@H](N)[C@@H](C)OC(=O)N/C(C)=C(\C#N)C(=O)Nc1ccc(C(F)(F)F)cc1 | 80.0% | 6.9 ··· |  |  |  |
| Cc1c(C#N)c(=O)n(-c2ccc(C(F)(F)F)cc2)c(=O)n1C |  |  | No adverse reactions. | > 200 mg/kg |  |
| Cc1c(C#N)c(=O)n(-c2ccc(C(F)(F)F)cc2)c(=O)n1Cc1ccccc1 |  |  | No adverse reactions. | > 200 mg/kg |  |
| C/C(NC(=O)CCN1C(=O)C=CC1=O)=C(/C#N)C(=O)Nc1ccc(C(F)(F)F)cc1 |  |  |  |  | IC50 (786-O cells): 1.09 µM; IC50 (A549 cells): 5.02 µM; IC50 (H460 cells): 1.23 µM; IC50 (LNCaP cells): 1.99 µM; IC50 (PC3): 3.79 µM; IC50 (DU145 cells): 2.89 µM |
| CCOC(=O)OCn1c(C)c(C#N)c(=O)n(-c2ccc(C(F)(F)F)cc2)c1=O |  |  | No adverse reactions. | > 200 mg/kg |  |
| COC(=O)N/C(C)=C(\C#N)C(=O)Nc1ccc(C(F)(F)F)cc1 | 80.9% | 6.6 ··· |  |  |  |
